Tested on: rat gastric corpus mucosa
Experiment: Transepithelial flux of 14C-labeled probes (mannitol, sucrose, polyethylene glycol) before and after PPI
Details: 0.1 mM 14C-labeled probe, after 200 μM omeprazole
Procedure: In each experiment, one adult male Sprague Dawley rat was sacrificed by decapitation. The stomach was removed, flushed, and stripped of its outer serosal membrane, while being frequently moistened with chilled, unbuffered saline. Two pieces of corpus mucosa were mounted in modified Ussing chambers, with exposed tissue surface area of 1.13 cm^2. Chambers were connected to gas-lift reservoirs, with a fluid volume of 17 mL per hemichamber. The mucosal hemichamber was filled with unbuffered saline (with 17 mM glucose) and kept aerated and perfused with 100% O2 at 37° C. […] Water-jacketed reservoirs maintained chamber saline at 37° C.
KRB was adjusted to a pH of 7.3-7.4.
Unbuffered saline was gassed with 100% O2 and was used to bathe the mucosal side of the gastric mucosa.
Approximately 30 minutes after tissues were mounted in Ussing chambers, dibutyrl cyclic AMP (dB-cAMP) (Sigma, St. Louis, Mo.) was added to the serosal sides of both chambers to a concentration of 1 mM in order to stimulate acid output by the tissue.
Three experiments were performed with each PPI, examining gastric permeability to ^14C-mannitol.
Three experiments were performed at each omeprazole concentration.

Question: What does the source list for OC[C@H]1O[C@@](CO)(O[C@H]2O[C@H](CO)[C@@H](O)[C@H](O)[C@H]2O)[C@@H](O)[C@@H]1O [Sucrose]?
Answer: % Increase in Flux: 118.17 +/− 26.26%; % Increase in Flux (listed as 14C-sucrose): 118.17%
